Measurements taken from patent publication US10550102B2, “Indane and indoline derivatives and the use thereof as soluble guanylate cyclase activators” (NOVARTIS AG, priority 2014, dated 2020).

Sequences of proteins named here, by UniProt entry; tags and fusion partners are left off. A change or cut given only in a name is not applied to a line headed by its entry.
UniProt Q02108, whole entry partner: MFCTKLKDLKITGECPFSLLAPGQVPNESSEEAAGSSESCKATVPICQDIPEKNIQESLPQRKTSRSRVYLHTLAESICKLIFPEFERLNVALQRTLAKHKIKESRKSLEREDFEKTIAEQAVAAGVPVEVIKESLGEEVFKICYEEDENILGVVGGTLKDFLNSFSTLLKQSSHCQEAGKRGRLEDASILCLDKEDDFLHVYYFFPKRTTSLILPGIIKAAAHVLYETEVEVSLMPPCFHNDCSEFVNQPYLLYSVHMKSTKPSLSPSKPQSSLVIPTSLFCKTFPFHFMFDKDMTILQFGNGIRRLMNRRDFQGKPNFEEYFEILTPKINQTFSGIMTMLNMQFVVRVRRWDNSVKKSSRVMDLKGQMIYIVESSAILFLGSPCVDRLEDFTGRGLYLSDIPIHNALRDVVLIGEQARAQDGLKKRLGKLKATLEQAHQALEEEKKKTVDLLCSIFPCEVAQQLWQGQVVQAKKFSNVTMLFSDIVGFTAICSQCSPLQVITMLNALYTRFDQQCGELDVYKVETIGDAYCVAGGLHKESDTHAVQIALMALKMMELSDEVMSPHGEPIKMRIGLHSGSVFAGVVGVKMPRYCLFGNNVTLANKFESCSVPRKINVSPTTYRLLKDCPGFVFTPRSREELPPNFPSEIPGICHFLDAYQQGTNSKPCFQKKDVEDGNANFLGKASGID
UniProt Q02153: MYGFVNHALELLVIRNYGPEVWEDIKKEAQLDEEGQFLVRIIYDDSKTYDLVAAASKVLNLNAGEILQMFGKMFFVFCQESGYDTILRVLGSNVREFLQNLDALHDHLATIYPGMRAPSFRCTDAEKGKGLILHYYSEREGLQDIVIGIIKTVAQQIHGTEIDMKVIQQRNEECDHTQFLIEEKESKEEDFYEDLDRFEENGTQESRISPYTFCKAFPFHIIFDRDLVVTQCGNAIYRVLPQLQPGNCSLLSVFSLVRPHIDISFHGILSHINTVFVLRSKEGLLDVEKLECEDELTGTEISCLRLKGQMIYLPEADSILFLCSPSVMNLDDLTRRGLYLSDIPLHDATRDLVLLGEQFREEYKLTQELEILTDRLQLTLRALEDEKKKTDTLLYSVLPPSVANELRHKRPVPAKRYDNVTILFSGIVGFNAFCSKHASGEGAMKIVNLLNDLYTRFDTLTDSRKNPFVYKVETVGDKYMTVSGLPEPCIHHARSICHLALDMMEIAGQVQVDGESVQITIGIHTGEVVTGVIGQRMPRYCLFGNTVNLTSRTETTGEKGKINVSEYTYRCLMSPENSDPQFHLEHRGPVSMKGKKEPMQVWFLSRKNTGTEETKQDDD

Assays:
[1] = target: soluble guanylate cyclase (human GUCYA3 and GUCYB3) overexpressed in CHO cells (Homo sapiens (Human), UniProt Q02108+Q02153); experiment: CHO cellular assay (cGMP production, Cisbio cGMP HTRF kit); format: cell-based; conditions: CHO GUCY clone 8E10, cGMP production, assay buffer with 1 mM IBMX and 20 uM ODQ, 1 h room temperature; minimum quantification limit 0.5 nM (listed 0.5 nM means ≤0.5 nM)
Source text: (§1) Chinese hamster ovary (CHO) cells overexpressing soluble guanylate cyclase were generated to test the effect of sGC activators in a cellular context. Human cDNAs for GUCYA3 (RefSeq: NM_000856.3) and GUCYB3 (RefSeq: NM_000857.1) were amplified by PCR from a HUVEC (Human Umbilical Vein Endothelial Cells) cDNA library and cloned into mammalian expression vectors. CHO K1 cells (ATCC CCL-61) were transfected using Lipofectamine 2000 following manufacturer's instructions and stably expressing clones were identified by antibiotic selection. CHO GUCY clone 8E10 was used for subsequent experiments. Cells were seeded at a density of 3000 cells/well in white 384-well proxyplates (Perkin Elmer) and incubated overnight, then the medium was removed and cells were washed with assay buffer (HBSS, 0.1% BSA. 1 mM IBMX, 20 uM ODQ). sGC activators were serially diluted in DMSO, then diluted in assay buffer prior to adding to cells (10 ul/well, final DMSO concentration 0.5%). Cells were incubated with compounds for 1 h room temperature, then assayed for cGMP production using Cisbio cGMP HTRF kit (62GM2PEC) according to manufacturer's instructions. The EC50s are calculated based on the amount of cGMP interpolated from the standard curve, using a 4-parameter sigmoidal dose-response.

[2] = target: soluble guanylate cyclase (human GUCYA3 and GUCYB3) overexpressed in CHO cells (Homo sapiens (Human), UniProt Q02153); experiment: as above; format: cell-based; conditions: CHO GUCY clone 8E10, cGMP production, assay buffer with 1 mM IBMX and 20 uM ODQ, 1 h room temperature; minimum quantification limit 0.5 nM (listed 0.5 nM means ≤0.5 nM)
Source text: as §1

CCc1cc(Cn2cc(C)c3cccc(-c4cccc(-n5ncc(C(=O)O)c5C(F)(F)F)n4)c32)ccc1C1CCN(C(=O)C2CC2)CC1 [Example 28, 1-(6-(1-(4-(1-(Cyclopropanecarbonyl)piperidin-4-yl)-3-ethylbenzyl)-3-methyl-1H-indol-7-yl)pyridin-2-yl)-5-(trifluoromethyl)-1H-pyrazole-4-carboxylic Acid]
EC50 [1]: 4.5 nM

(−)-1-(6-(1-(4-(1-(Cyclopropanecarbonyl)piperidin-4-yl)-3-ethylbenzyl)-2-methylindolin-7-yl)pyridin-2-yl)-8-ethyl-1H-pyrazole-4-carboxylic Acid [Example 22b]
EC50 [2]: 4.5 nM

(−)-6-Ethyl-1-(6-(3-((3-ethyl-4-(1-(S)-2-hydroxybutanoyl)piperidin-4-yl)phenyl)amino)-2,3-dihydro-1H-inden-4-yl)pyridin-2-yl)-1H-pyrazole-4-carboxylic Acid [Example 50b]
EC50 [2]: 12 nM
